In patent publication US20250361241A1, “HPK1 INHIBITOR AND MEDICAL USE THEREOF” (Betta Pharmaceuticals Co., Ltd., priority 2022, published 2025):

Assay: PK study of compound in monkeys
Conditions: in vivo; crab-eating monkey, IV 1 mg/kg and PO 5 mg/kg; read-out: Bioavailability F %
Protocol: Pharmacological Experiment 7: PK Study of Compound in Monkeys
The drug concentration was analyzed by LC-MS/MS method, and the pharmacokinetic parameters were calculated using Phoenix WinNolin software (Pharsight, USA).

bioavailability: 38.2%
SMILES: CN(C)Cc1nc(Nc2ccc(-c3cnc4cc(F)ccn34)c3c2C(=O)NC3)ccc1C1CCOCC1 [Compound D1, reference compound]
